Measured values from EP1032559B1 (priority 1997, dated 1999).

Molecular target: clonidine: α2-receptor
Experiment: in vitro clonidine binding: α2-receptor assay
Design: species or system Male Wistar rats
Conditions: rat cortical tissue homogenate; 3 nM 3H-clonidine; 20 minutes at 25° C; log-probit analysis; read-out: Inhibition of clonidine binding activity IC50
Description: The alkylaminophenol derivatives of the present invention are also useful as agents for treating depression. […] U'Prichard, et al., Molecular Pharmacology, 16, 47 (1979) and D. C. U'Prichard, et al., Molecular Pharm acology, 13, 454 (1976).
The following reagents are prepared: 1. Tris buffer, pH 7.7 • a. 57.2 g Tris hydrochloride 16.2 g Tris Base - q.s. to 1 liter (0.5 M Tris buffer, pH 7.7) • b. Make a 1:10 dilution in distilled H2O (0.05 M Tris buffer, pH 7.7) 2. Tris buffer containing physiological ions a. Stock Buffer
b. Dilute 1:10 in distilled H2O. This yields 0.05 M Tris hydrochloride pH 7.7; containing sodium chloride (120 mM), potassium chloride (5 mM), calcium chloride (2 mM) and magnesium chloride (1 mM). 3. [4-^3H]-Clonidine Hydrochloride (20-30 Ci/mmol) is obtained from New England Nuclear. For IC50 determinations: ^3H-Clonidine is made up to a concentration of 120 nM and 50 µl added to each tube (yields a final concentration of 3 nM in the 2 ml volume assay). 4. Clonidine hydrochloride is obtained from Boehringer Ingelheim. […]
Tissue homogenates are incubated for 20 minutes at 25° C with 3 nM ^3H-clonidine and varying drug concentrations, then immediately filtered under reduced pressure on Whatman GF/B filters. […] Ten ml of liquescent counting solution is added to each sample which is then counted by liquid scintillation spectroscopy. […]

`CN(C)CCC=C1c2ccccc2CCc2ccccc21` [amitriptyline] gave an IC50 of 39 nM.
